According to article PMC12202309 (International Journal of Neuropsychopharmacology, 2025):

Key:
[1] = 0.5 mg/kg IV DMO
Method: After a 1-week acclimation period, the mice were randomly assigned to 2 experimental groups of 36 animals each: (1) an LPS group was given a single 4 mg/kg intraperitoneal (IP) injection of lipopolysaccharide (LPS), serotype O55:B05 (Sigma) and (2) a control group received a vehicle (sterile phosphate-buffered saline). […] The volume load for mice weighing 25 g was 125 µL. […] The doses of DMSO and MC were 276 and 25 mg/kg. […] Sampling was performed at 2 intervals in each of the 18 mice injected with LPS and 18 controls. The first blood volume of 150 µL was taken into an EDTA-microvette CB 300 (Sardstedt) from a drop of blood after a small incision at the end of the tail. At the termination interval, the second blood sample was collected by cardiac puncture in terminal anesthesia, and then the animal was put to death by decapitation. […] The injected volume was 1 mL/kg, that is, 25 µL for a 25 g mouse. […] The injected volume was 2.5 mL/kg, that is, 75 µL for a 25 g mouse. […]
The calculation of the point estimate and the 95% bootstrap t-confidence interval for AUCt was performed with the help of the R-package PK (https://cran.r-project.org/web/packages/PK/index.html). Total brain-to-plasma drug partition coefficient (Kp,brain) and unbound brain-to-unbound plasma partition coefficient (Kp,uu, brain) were calculated using Equations 3 and 4: […]

[2] = mouse, in vivo
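Wherever ka is given: pharmacokinetic model fitted to concentration-time data, with between-animal variability described exponentially, residual error proportional, and effect of LPS injection assessed on clearance and distribution volumes.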
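Wherever βV1 LPS is given: pharmacokinetic model fitted to concentration-time data, with between-animal variability described exponentially, residual error proportional, and effect of LPS injection assessed on clearance and distribution volumes.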
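Wherever βV2 LPS is given: pharmacokinetic model fitted to concentration-time data, with between-animal variability described exponentially, residual error proportional, and effect of LPS injection assessed on clearance and distribution volumes.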
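Wherever ωka, percent interindividual variability is given: pharmacokinetic model fitted to concentration-time data, with between-animal variability described exponentially, residual error proportional, and effect of LPS injection assessed on clearance and distribution volumes.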

Cc1cc2c(s1)Nc1ccccc1N=C2N1CCN(C)CC1 [olanzapine]
detection in the plasma after IV administration of DMO [1]: undetectable | ka ([2]; C57BL/6N): 2.9 (48%) hour^−1 | ωka, percent interindividual variability ([2]; C57BL/6N): 145 (30%) | βV1_LPS [2]: ns | βV2_LPS [2]: ns
